Laboratory results as given in PMC10906223, “An orally available compound suppresses glucagon hypersecretion and normalizes hyperglycemia in type 1 diabetes” (JCI Insight, 2024).

Assay: Microsomal stability assay, CD-1 mouse liver microsomes
Format: in vitro ADME
Protocol: A total of 445 μL of the working solution was transferred into prewarmed incubation plates for treated (T60) and control (NCF60) measurements. After preincubation (10 minutes at 37°C with constant shaking), 54 μL was transferred to the blank plate, followed by 6 μL of NADPH and 180 μL quenching solution. In parallel, 5 μL of WCDD301 (100 μM) was added into incubation plates (T60 and NCF60) containing microsomes and mixed thoroughly (3 times). For the NCF60 plate, 50 μL of buffer was added, mixed (thoroughly, 3 times), shaken, and incubated at 37°C for 60 minutes. In the quenching plate T0, quenching solution (180 μL) and NADPH cofactor (6 μL) were added. For T60 plate, 54 μL of the mixture was placed into the quenching plate (for T0 point), followed by adding 44 μL NADPH cofactor with shaking incubation at 37°C for 60 minutes. Quenching solution (180 μL) was added to quenching plates at 5, 15, 30, 45, and 60 minutes, and 60 μL of sample was transferred from T60 plate per time point to the quenching plates. For the NCF60 plates, 60 μL sample from the NCF60 incubation plate was transferred to the quenching plate (containing quenching solution) at the 60-minute time point. After plates were shaken for 10 minutes and centrifuged (1,750g, 20 minutes at 4°C), 80 μL of the supernatant was transferred into 240 μL HPLC water for LC-MS/MS analysis. […]

O=C(O)Cc1ccccc1Nc1c(Cl)cccc1Cl [Diclofenac]
half-life at 1 µM: 47.5 min
